# System: Enterobacter cloacae
# Conditions: EcDC64
sequence,measurement,value
GENTAMICIN,MIC,0.5 µg/mL

# Reference: ChEMBL document CHEMBL1154428, “Cloning, nucleotide sequencing, and analysis of the AcrAB-TolC efflux pump of Enterobacter cloacae and determination of its involvement in antibiotic resistance in a clinical isolate” (2007)
